Earlier results in publication PMC10731658 (Chemical Research in Toxicology, 2023).

Tested on: tabun-induced oxidative stress
Settings: postexposure administration; cited from earlier work

NC(=O)c1cc[n+](C/C=C/C[n+]2ccc(C=NO)cc2)cc1.[Br-].[Br-] [K203, 4-carbamoyl-1-((2E)-4-(4-((hydroxyimino)methyl)pyridin-1-ium-1-yl)but-2-en-1-yl)pyridin-1-ium dibromide]
overall impact in protecting against oxidative stress induced by tabun: not significant
